Compounds with a hit are over-represented: about 1.5% of the library has one in this group of screens.
Casp6 inh = human caspase-6 inhibitors, primary screen, biochemical, VEID-R110 fluorescence, single point, set 2 | purified caspase-6, Z-VEID-R110 cleavage fluorescence | 350,000 compounds, 0.53% hits | inhibition, % at 12.5 µM;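 active = mean inhibition across replicates at least about 35%, with every replicate also reaching that limit, limit read from the data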;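 also: 0% = median of neutral control wells and 100% = no fluorescence left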
RAD54 inh = inhibitors of human RAD54 branch migration, primary screen, biochemical, fluorescence, single point. DNA repair and recombination protein RAD54-like (Homo sapiens), Q92698. RAD54 Holliday junction branch migration, FAM/BHQ fluorescence. inhibition, % at 10.4 µM. 360,000 compounds, 0.14% hits;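 active = mean normalized replicate activity at least 40 and at least half of replicates scoring 40 or more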;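 also: 0% = median of neutral control wells and 100% = median of positive control wells; inhibitors cause a drop in the FAM fluorescence signal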
PglD DTNB = C. jejuni PglD acetyltransferase inhibitors, primary screen, biochemical, DTNB colorimetric, single point | UDP-N-acetylbacillosamine N-acetyltransferase PglD (Campylobacter jejuni) | purified PglD enzyme, DTNB colorimetric CoA detection | inhibition, % at 12.5 µM | 360,000 compounds, 0.098% hits; in the data active = inhibition above about 16%, passing the limit was not always enough
UUG fidelity = modulators of start codon recognition fidelity in yeast; AID 602363; hit rate 0.13% among 350,000; activity score, % at 18.7 µM; S. cerevisiae UUG-firefly luciferase reporter, luminescence/redox ratio;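 active = replicate mean at a twofold rise or more, about +100% in these data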;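 note: firefly luciferase made from a UUG start codon reports start codon fidelity; reporter light over untreated wells divided by growth signal over untreated wells; some hits fall short of that in this replicate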
RAD52 anneal inh = RAD52 DNA annealing inhibitors, primary screen, biochemical, FRET, single point, set 2; DNA repair protein RAD52 homolog (Homo sapiens), P43351; recombinant RAD52 DNA annealing, FRET fluorescence; inhibition, % at 18.7 µM; 360,000 compounds, 0.46% hits;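 active = every replicate showing at least 50% inhibition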
GSIS activator = GLuc luminescence reporter in INS-1E cells, primary screen for activators of glucose-dependent secretion of insulin; INS-1E GLuc reporter insulin secretion, 2-3 h; activation, % at 16.6 µM; 370,000 compounds, 0.61% hits;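 active = lowest replicate activation of at least 40%, so every replicate reaches that level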;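 also: 0% = median of neutral control wells and 100% = median of IBMX positive control wells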
* = called active by the depositor; . = no result.

Every second line gives: Casp6 inh	RAD54 inh	PglD DTNB	UUG fidelity	RAD52 anneal inh	GSIS activator
O=C(NCc1ccc(Cl)c(Cl)c1)c1cc(C2CCCCN2C(=O)C2CCCCC2)on1 (configuration not stated)
    1	1	5	-4	-6	-13
COc1ccc(CCn2nnc(-c3ccc(NC(C)=O)c(Cl)c3)n2)cc1
    .	-4	0	-13	.	81*
CC(=O)Nc1ccc(-c2csc(NC(=O)CCCc3cccs3)n2)cc1
    3	1	-3	3	2	-1
Cc1ccc(-c2csc(NC(=O)CCCc3cccs3)n2)cc1
    .	.	.	.	.	98*
CC(C)NC(=O)N(C)C[C@@H]1OCCCC[C@H](C)Oc2ccc(NC(=O)CCC(F)(F)F)cc2C(=O)N([C@H](C)CO)C[C@@H]1C
    .	6	4	.	.	13
CC1CCC(NC(=O)C2COc3ccccc3O2)CC1 (configuration not stated)
    1	.	.	.	-15	57*
O=C(NC1CCCCC1)C1COc2ccccc2O1 (configuration not stated)
    1	0	-2	-11	0	20
COC/C=C/C1=CC2=CC(=O)C(C)(OC(=O)c3cnc4ccccc4n3)C(=O)C2=CN1CCN1CCOCC1 (configuration not stated)
    5	-19	2	-1	-47	-7
CNc1nc(Sc2cccc(C(F)(F)F)c2)cc(C(F)(F)F)n1
    -3	-2	7	-6	-8	11
CNc1nc(Sc2ccccc2)cc(C(F)(F)F)n1
    -1	-1	5	0	-3	51*
CCOC(=O)C1(Cc2ccccc2C(F)(F)F)CCN(C(C)CCn2cccn2)CC1 (configuration not stated)
    2	.	.	.	-13	-22
Cc1ccc(C2=N/C(=C\c3coc4ccccc4c3=O)C(=O)O2)cc1
    44*	.	.	.	-22	0
COc1ccc(/C=C2\N=C(c3ccc(C)cc3)OC2=O)cc1
    0	4	-2	3	-102	2
CC(C)[C@@H]1CC[C@@H](C)C[C@H]1OC[B-](F)(F)F
    1	.	.	.	11	69*
O=C(CN1C(=O)c2cccc([N+](=O)[O-])c2C1=O)NCc1ccccc1
    3	-5	-9	-4	6	16
COCCOc1ccc(C(F)(F)F)cc1NC(=O)c1ccc(C(F)(F)F)cc1
    -3	3	-1	-6	-5	-31
COCCOc1ccc(C(F)(F)F)cc1NC(=O)c1ccccc1F
    .	.	.	.	.	50*
COc1ccc(CNC(=O)CS(=O)Cc2nc(-c3ccc(OC)c(OC)c3)oc2C)cc1 (configuration not stated)
    2	-6	4	-12	-8	0
COc1cc(/C=C2\C(=N)N3N=C(S(C)(=O)=O)SC3=NC2=O)ccc1OC(=O)c1ccco1
    41*	-15	0	-21	-80	4
COc1ccccc1OCCOc1ccc(/C=C2/C(=N)N3OC(C)=CC3=NC2=O)cc1OC
    .	9	0	-16	.	287*
COc1cc(/C=C2\C(=N)N3N=C(S(C)(=O)=O)SC3=NC2=O)ccc1OC(=O)c1cccs1
    43*	-4	-7	-13	-19	-16
COc1cc(/C=C2\C(=N)N3N=C(S(C)(=O)=O)SC3=NC2=O)ccc1OCCOc1ccccc1C
    40*	-6	-1	-6	-33	.
CCOc1cc(/C=C2\C(=N)N3N=C(S(=O)(=O)CC)SC3=NC2=O)ccc1OC(=O)c1ccco1
    11	-8	4	-4	-118	.
Cc1ccc(S(=O)(=O)N2CCOCC2)cc1NC(=O)COC(=O)Cc1ccc(Cl)cc1
    0	-5	1	-3	-7	-8
CC1Cc2nc(SCC(N)=O)n(C)c(=O)c2S1 (configuration not stated)
    -1	6	-2	8	2	9
CCCCC(=O)Nc1ccc(N2CCN(S(C)(=O)=O)CC2)cc1
    .	-6	-1	13	.	.
CCCC(=O)Nc1ccc(N2CCN(S(C)(=O)=O)CC2)cc1
    .	.	.	.	.	53*
CO/N=C/C(C#N)=C/c1ccc(OC)c(OC)c1
    0	.	.	.	-8	60*
NC(c1csc(Nc2ccc(C(F)(F)F)cn2)n1)C1CCCCC1 (configuration not stated)
    16	12	-1	-19	33	533*
NC(CO)c1csc(Nc2ccc(C(F)(F)F)cn2)n1 (configuration not stated)
    2	3	-1	-11	-15	0

5 entries out of the list, arranged by length of the SMILES, smallest number first.
Every second line gives: Casp6 inh	RAD54 inh	PglD DTNB	UUG fidelity	RAD52 anneal inh	GSIS activator
CC1Cc2nc(SCC(N)=O)n(C)c(=O)c2S1 (configuration not stated)
    -1	6	-2	8	2	9
CO/N=C/C(C#N)=C/c1ccc(OC)c(OC)c1
    0	.	.	.	-8	60*
CCCCC(=O)Nc1ccc(N2CCN(S(C)(=O)=O)CC2)cc1
    .	-6	-1	13	.	.
Cc1ccc(S(=O)(=O)N2CCOCC2)cc1NC(=O)COC(=O)Cc1ccc(Cl)cc1
    0	-5	1	-3	-7	-8
COc1cc(/C=C2\C(=N)N3N=C(S(C)(=O)=O)SC3=NC2=O)ccc1OCCOc1ccccc1C
    40*	-6	-1	-6	-33	.

Later entries.
Every second line gives: Casp6 inh	RAD54 inh	PglD DTNB	UUG fidelity	RAD52 anneal inh	GSIS activator
NC(CCc1ccccc1)c1csc(Nc2ccc(C(F)(F)F)cn2)n1 (configuration not stated)
    -2	6	2	36	-49	308*
Cc1c(C)c2c(OCC(=O)O)cc3c(c2oc1=O)CCC(C)(C)O3
    -2	-6	-8	-6	6	248*
Cc1c(C)c2c(OCC(=O)NCC(=O)NCC(=O)O)cc3c(c2oc1=O)CCC(C)(C)O3
    0	-6	5	15	-23	4
CC(=O)Nc1cccc(NC(=O)CCn2cnc3cc(C)c(C)cc32)c1
    .	1	2	-11	.	.
O=C(O)c1ccc(-c2nc(-c3ccc(Cl)cc3Cl)cs2)cc1
    1	-8	-4	555*	-2	-2
O=C(O)c1ccc(-c2nc(-c3ccc(Cl)cc3)cs2)cc1
    -1	.	.	.	-2	-8
COc1ccccc1OC(=O)CCN1c2ccccc2Sc2ccccc21
    .	.	.	.	.	-31
O=C(O)CCN1c2ccccc2Sc2ccccc21
    3	-4	11	-14	-7	69*
O=c1[nH]c2cccnc2c2ccsc12
    5	-18	0	-15	-1	-6
CCC(=O)Nc1cc2nn(-c3ccc(OC)cc3)nc2cc1C
    .	-10	1	-14	.	108*
CC(=O)SC1CC(=O)C=C2CCC3C4CCC(=O)OC4(C)CCC3C21C (configuration not stated)
    -1	2	-2	-8	-4	-13
Cc1ccccc1CSCc1ccc(C(=O)NCCCN2CCOCC2)o1
    16	-3	0	0	-17	46*
CC(/C=N/Nc1nc2ccccc2[nH]1)=C\c1ccccc1
    36*	.	.	.	-11	-23
CC(/C=N/Nc1nc(C)cc(=O)[nH]1)=C\c1ccccc1
    2	3	7	-37	0	8
Cn1c(=O)c2c(nc(Br)n2CCSc2nnnn2-c2ccccc2)n(C)c1=O
    .	-2	-1	-3	.	.
COc1ccc(/C=C/C(=O)O)cc1COc1cccc(C)c1
    .	.	.	.	.	47*
COc1ccc(/C=C/C(=O)C2CC2)cc1COc1c(C)cccc1C
    2	.	.	.	3	17
